{"sequences": {"note": "Chains of the proteins cited; added tags and fusions are not shown. Residues count along the entry.", "UniProt P12931, whole entry": "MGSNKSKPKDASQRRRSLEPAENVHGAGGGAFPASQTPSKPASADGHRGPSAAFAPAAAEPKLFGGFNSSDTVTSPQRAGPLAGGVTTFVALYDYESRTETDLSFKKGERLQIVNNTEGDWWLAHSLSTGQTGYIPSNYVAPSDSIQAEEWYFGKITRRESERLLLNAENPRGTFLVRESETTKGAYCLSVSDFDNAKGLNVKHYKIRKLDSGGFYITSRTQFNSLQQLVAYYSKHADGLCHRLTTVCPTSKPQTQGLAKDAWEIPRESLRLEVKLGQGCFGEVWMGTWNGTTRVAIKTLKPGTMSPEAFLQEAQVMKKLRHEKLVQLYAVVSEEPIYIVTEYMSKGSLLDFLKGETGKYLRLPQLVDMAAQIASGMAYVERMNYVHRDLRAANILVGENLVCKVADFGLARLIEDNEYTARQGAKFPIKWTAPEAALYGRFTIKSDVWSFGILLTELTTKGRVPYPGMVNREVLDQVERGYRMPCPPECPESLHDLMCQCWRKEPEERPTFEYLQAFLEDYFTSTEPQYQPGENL", "UniProt P00533, 25-1210 limits assumed": "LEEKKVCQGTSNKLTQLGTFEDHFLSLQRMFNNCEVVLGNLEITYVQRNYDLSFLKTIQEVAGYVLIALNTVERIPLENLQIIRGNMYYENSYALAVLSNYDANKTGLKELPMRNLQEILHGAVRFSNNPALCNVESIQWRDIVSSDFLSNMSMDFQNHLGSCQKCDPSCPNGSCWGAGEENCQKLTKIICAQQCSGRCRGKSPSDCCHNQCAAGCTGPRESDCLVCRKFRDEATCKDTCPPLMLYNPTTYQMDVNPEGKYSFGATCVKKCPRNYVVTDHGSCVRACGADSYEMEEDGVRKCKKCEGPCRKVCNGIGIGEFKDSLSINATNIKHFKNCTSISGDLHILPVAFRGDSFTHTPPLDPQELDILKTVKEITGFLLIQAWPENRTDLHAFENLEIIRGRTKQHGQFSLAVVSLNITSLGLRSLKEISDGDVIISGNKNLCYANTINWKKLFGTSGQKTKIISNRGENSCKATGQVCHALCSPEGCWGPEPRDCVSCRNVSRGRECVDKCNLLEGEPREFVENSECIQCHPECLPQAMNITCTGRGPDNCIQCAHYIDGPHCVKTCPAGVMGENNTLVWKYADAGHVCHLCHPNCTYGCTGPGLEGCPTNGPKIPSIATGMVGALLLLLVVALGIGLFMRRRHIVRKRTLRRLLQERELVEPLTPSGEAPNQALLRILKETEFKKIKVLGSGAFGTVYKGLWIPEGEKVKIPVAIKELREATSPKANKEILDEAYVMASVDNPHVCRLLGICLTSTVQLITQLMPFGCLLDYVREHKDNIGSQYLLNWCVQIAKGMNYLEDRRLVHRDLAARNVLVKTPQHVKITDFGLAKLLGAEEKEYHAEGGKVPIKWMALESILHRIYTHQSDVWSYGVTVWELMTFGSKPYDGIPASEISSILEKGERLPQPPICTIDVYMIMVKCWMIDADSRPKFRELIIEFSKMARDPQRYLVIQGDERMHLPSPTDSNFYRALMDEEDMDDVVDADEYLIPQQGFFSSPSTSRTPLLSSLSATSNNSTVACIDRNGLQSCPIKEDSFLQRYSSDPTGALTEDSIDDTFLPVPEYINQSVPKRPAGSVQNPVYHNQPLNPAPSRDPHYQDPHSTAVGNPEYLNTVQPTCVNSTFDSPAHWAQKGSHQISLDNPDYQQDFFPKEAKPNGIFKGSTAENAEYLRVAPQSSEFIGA", "UniProt P06241, whole entry": "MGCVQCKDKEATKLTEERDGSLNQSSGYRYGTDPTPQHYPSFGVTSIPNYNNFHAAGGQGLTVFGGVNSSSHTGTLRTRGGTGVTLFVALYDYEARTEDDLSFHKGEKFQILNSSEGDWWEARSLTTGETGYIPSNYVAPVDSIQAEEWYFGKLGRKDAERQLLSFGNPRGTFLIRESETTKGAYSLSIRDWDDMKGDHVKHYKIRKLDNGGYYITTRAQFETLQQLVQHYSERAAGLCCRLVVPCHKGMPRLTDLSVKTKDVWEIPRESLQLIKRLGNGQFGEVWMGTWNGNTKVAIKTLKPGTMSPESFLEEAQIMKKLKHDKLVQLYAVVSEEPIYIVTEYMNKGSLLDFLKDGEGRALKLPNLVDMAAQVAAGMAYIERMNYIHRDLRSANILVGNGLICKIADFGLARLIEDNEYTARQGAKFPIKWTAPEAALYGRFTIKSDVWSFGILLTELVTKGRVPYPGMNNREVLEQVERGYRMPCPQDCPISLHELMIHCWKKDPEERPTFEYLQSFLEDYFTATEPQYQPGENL", "UniProt P06239, whole entry": "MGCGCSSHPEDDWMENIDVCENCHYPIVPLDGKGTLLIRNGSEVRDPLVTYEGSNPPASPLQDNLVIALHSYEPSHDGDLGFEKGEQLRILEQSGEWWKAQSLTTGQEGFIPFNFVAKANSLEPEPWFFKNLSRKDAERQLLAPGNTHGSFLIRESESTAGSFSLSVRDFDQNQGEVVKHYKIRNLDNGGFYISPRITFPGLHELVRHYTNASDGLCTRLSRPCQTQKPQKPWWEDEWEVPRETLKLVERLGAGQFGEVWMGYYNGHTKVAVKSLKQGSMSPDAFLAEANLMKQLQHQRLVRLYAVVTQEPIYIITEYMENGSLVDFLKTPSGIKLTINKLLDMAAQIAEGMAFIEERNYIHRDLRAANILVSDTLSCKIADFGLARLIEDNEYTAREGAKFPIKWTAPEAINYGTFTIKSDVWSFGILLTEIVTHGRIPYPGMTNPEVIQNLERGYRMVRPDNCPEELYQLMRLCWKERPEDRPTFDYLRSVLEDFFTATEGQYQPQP", "UniProt P07948, whole entry": "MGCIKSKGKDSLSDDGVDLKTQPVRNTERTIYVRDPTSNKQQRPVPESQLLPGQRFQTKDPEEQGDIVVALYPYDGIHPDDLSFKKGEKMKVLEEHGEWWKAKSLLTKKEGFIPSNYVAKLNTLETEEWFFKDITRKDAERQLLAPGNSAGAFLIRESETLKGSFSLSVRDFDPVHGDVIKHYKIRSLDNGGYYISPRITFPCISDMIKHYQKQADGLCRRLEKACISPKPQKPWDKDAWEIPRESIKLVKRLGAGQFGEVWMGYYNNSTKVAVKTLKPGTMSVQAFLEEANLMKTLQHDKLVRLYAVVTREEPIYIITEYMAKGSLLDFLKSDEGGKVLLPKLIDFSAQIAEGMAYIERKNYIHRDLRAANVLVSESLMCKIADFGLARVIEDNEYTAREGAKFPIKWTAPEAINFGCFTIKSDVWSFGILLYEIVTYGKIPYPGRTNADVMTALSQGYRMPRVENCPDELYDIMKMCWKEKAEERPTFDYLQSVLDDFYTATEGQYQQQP", "UniProt P07947, whole entry": "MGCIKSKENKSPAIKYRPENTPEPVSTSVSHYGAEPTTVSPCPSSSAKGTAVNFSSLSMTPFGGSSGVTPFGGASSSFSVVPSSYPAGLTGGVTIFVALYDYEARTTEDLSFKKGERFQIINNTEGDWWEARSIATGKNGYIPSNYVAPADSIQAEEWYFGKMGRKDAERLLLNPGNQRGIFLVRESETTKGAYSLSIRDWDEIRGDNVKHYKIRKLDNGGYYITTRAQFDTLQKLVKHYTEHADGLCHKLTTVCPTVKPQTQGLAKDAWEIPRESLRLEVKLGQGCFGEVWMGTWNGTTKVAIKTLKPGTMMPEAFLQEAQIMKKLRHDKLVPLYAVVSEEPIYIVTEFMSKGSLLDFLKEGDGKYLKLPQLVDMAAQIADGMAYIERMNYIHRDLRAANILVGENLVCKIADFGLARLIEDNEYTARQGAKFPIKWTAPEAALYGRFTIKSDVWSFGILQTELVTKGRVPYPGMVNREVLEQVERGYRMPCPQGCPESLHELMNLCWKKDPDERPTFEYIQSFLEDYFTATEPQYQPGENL", "UniProt Q05397, whole entry": "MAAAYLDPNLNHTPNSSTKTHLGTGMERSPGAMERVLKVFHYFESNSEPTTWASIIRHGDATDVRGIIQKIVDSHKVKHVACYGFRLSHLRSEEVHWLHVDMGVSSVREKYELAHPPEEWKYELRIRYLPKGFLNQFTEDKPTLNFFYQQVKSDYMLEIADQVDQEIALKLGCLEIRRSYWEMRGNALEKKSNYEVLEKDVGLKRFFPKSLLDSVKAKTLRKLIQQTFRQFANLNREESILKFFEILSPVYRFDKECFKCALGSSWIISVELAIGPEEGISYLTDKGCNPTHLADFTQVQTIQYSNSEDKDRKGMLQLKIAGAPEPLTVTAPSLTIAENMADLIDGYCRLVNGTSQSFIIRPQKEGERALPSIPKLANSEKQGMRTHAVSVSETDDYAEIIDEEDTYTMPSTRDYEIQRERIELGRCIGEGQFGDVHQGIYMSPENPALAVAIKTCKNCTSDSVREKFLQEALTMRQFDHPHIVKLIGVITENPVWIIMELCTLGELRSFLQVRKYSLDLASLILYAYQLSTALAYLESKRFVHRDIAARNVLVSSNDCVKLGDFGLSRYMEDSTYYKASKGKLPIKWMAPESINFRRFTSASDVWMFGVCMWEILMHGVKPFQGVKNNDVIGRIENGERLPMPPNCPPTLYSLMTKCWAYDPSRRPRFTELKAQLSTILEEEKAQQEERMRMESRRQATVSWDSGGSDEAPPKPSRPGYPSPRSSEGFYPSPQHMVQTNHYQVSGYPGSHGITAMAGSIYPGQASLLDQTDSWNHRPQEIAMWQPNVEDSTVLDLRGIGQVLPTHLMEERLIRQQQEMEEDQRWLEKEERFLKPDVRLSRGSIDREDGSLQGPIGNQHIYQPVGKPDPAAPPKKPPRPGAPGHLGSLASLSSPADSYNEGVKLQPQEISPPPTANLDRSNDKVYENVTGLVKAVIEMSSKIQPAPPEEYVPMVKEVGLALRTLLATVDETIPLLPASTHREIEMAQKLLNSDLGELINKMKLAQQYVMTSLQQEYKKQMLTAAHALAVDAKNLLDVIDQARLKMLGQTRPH", "UniProt P08069, 31-1367 limits assumed": "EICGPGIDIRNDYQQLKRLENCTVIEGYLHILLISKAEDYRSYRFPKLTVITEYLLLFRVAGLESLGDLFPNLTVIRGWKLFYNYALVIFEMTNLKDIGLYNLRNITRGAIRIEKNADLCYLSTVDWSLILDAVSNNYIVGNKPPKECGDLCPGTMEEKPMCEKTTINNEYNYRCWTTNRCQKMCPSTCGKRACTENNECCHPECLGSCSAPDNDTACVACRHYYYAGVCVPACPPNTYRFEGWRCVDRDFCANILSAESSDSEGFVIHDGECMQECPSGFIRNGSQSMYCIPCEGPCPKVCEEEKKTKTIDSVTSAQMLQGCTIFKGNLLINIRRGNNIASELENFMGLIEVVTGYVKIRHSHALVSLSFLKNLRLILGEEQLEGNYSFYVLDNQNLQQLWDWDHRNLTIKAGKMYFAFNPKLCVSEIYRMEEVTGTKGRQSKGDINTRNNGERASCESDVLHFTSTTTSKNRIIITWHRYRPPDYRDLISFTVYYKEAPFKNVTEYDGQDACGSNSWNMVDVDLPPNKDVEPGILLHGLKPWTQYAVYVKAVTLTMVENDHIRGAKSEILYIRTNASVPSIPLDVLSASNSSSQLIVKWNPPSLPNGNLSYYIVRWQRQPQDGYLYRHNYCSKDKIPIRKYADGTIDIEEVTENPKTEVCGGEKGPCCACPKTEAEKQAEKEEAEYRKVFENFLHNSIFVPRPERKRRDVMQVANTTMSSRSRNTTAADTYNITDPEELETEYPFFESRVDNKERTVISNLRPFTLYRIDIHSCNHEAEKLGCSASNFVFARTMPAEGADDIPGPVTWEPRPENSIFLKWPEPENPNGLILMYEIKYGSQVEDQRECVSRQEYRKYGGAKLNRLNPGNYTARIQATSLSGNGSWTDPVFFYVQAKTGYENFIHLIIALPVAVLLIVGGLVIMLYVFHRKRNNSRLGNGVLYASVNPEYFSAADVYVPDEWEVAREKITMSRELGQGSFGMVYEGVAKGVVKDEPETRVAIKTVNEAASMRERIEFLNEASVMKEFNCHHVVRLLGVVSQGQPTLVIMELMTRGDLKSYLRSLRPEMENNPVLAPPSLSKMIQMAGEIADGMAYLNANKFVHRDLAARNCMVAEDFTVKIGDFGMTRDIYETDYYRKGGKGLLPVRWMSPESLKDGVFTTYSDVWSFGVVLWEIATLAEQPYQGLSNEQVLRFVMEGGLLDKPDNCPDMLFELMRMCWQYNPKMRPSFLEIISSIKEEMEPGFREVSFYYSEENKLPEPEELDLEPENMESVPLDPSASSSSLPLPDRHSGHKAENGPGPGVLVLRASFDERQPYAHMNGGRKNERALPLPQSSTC", "UniProt P28482, whole entry": "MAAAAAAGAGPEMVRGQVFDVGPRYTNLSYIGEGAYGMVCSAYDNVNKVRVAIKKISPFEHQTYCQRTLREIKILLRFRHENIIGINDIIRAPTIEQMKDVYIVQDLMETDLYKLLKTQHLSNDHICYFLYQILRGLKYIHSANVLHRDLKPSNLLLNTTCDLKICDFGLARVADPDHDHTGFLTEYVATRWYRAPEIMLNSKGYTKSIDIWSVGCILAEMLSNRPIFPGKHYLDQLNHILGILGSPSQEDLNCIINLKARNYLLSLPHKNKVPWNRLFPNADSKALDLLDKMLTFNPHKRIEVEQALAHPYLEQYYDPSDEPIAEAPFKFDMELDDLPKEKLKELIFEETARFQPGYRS"}, "source": "patent US7838542B2", "about": "“Bicyclic compositions and methods for modulating a kinase cascade” (Kinex Pharmaceuticals, LLC, priority 2006, dated 2010)", "key": {"Src": {"target": "Src (Homo sapiens, UniProt P12931)", "test": "Isolated kinase assay and titration, Src", "format": "biochemical", "settings": "for IC50: read-out: IC50, isolated Src, titration data"}, "[1]": {"test_system": "c-Src/NIH-3T3 engineered cell line", "test": "Src-driven cell growth, c-Src/NIH-3T3", "format": "cell-based"}, "[2]": {"test_system": "NCI human colon cancer cell line HT29", "test": "Cell growth, HT29", "format": "cell-based", "settings": "read-out: GI50, HT29"}, "Abl": {"target": "Abl (Homo sapiens, UniProt P00519)", "test": "Isolated kinase assay, Abl", "format": "biochemical"}, "EGFRTK": {"target": "EGFRTK (Homo sapiens, UniProt P00533)", "test": "Isolated kinase assay, EGFRTK", "format": "biochemical"}, "Fyn": {"target": "Fyn (Homo sapiens, UniProt P06241)", "test": "Isolated kinase assay, Fyn", "format": "biochemical"}, "Lck": {"target": "Lck (Homo sapiens, UniProt P06239)", "test": "Isolated kinase assay, Lck", "format": "biochemical"}, "Lyn": {"target": "Lyn (Homo sapiens, UniProt P07948)", "test": "Isolated kinase assay, Lyn", "format": "biochemical"}, "Yes": {"target": "Yes (Homo sapiens, UniProt P07947)", "test": "Isolated kinase assay, Yes", "format": "biochemical"}, "[3]": {"test_system": "PDGF receptor tyrosine kinase", "test": "Isolated kinase assay, PDGF receptor tyrosine kinase", "format": "biochemical"}, "FAK": {"target": "FAK (Homo sapiens, UniProt Q05397)", "test": "Isolated kinase assay and titration, FAK", "format": "biochemical"}, "Src-Y416": {"test_system": "Src-Y416", "test": "Intracellular phosphorylation: Src-Y416 autophosphorylation", "format": "cell-based", "settings": "HT29 and c-Src527F/NIH-3T3 cells; 0.2×, 1×, 5×, 25× GI50"}, "FAK Tyr 925": {"test_system": "FAK Tyr 925", "test": "Intracellular phosphorylation: FAK Tyr 925", "format": "cell-based", "settings": "c-Src/NIH-3T3 and HT-29 cells"}, "Shc Y239/240": {"test_system": "Shc Y239/240", "test": "Intracellular phosphorylation: Shc Y239/240", "format": "cell-based", "settings": "c-Src/NIH-3T3 and HT-29 cells"}, "Paxillin Y-31": {"test_system": "Paxillin Y-31", "test": "Intracellular phosphorylation: Paxillin Y-31", "format": "cell-based", "settings": "c-Src/NIH-3T3 cells"}, "Caspase-3": {"test_system": "Caspase-3", "test": "Induction of apoptosis via Caspase 3 cleavage", "format": "cell-based", "settings": "HT29 and c-Src527F/NIH-3T3 cells"}, "total phosphotyrosine": {"test_system": "total phosphotyrosine", "test": "Total phosphotyrosine levels", "format": "cell-based", "settings": "HT29 and c-Src527F/NIH-3T3 cells"}, "[4]": {"test_system": "PDGF receptor tyrosine kinase Y572/574", "test": "PDGF receptor autophosphorylation Y572/574", "format": "cell-based", "settings": "c-Src/NIH-3T3 cells"}, "FAK Y397": {"test_system": "FAK Y397", "test": "FAK Y397 autophosphorylation", "format": "cell-based", "settings": "c-Src527F/NIH3T3 cells"}, "EGFR tyrosine kinase": {"test_system": "EGFR tyrosine kinase", "test": "EGFR tyrosine kinase autophosphorylation", "format": "cell-based", "settings": "c-Src/NIH-3T3 and HT-29 cells"}, "Chinchillas": {"test_system": "Chinchillas", "test": "Noise-induced hearing loss, round window application (Example 12)", "format": "in vivo, chinchilla", "settings": "4 kHz band noise at 105 dB SPL, four hours, day 1, 7, 21"}, "[5]": {"test_system": "osteoclast precursors derived from spleen cells", "test": "Osteoclast formation from spleen-derived precursors", "format": "cell-based", "settings": "5 days with RANKL and M-CSF; versus untreated control"}, "osteoclasts": {"test_system": "osteoclasts", "test": "Osteoclast survival", "format": "cell-based", "settings": "48 hours with RANKL and M-CSF; versus untreated control"}, "[6]": {"test_system": "osteoclasts on bone slices", "test": "Bone resorption in vitro on bone slices", "format": "cell-based", "settings": "versus untreated control"}, "FGFR2(h)": {"target": "FGFR2(h) (Homo sapiens, UniProt P21802)", "test": "Isolated kinases, percent activity relative to control (Table XV), FGFR2", "format": "biochemical", "settings": "@ 10 μM"}, "IGF-1R(h)": {"target": "IGF-1R(h) (Homo sapiens, UniProt P08069)", "test": "Isolated kinases, percent activity relative to control (Table XV), IGF-1R", "format": "biochemical", "settings": "@ 10 μM"}, "IR(h)": {"target": "IR(h) (Homo sapiens, UniProt P06213)", "test": "Isolated kinases, percent activity relative to control (Table XV), IR", "format": "biochemical", "settings": "@ 10 μM"}, "MAPK2(h)": {"target": "MAPK2(h) (Homo sapiens, UniProt P28482)", "test": "Isolated kinases, percent activity relative to control (Table XV), MAPK2", "format": "biochemical", "settings": "@ 10 μM"}, "PKCα(h)": {"target": "PKCα(h) (Homo sapiens, UniProt P17252)", "test": "Isolated kinases, percent activity relative to control (Table XV), PKCα", "format": "biochemical", "settings": "@ 10 μM"}, "Pyk2(h)": {"target": "Pyk2(h) (Homo sapiens, UniProt Q14289)", "test": "Isolated kinases, percent activity relative to control (Table XV), Pyk2", "format": "biochemical", "settings": "@ 10 μM"}, "ZAP-70(h)": {"target": "ZAP-70(h) (Homo sapiens, UniProt P43403)", "test": "Isolated kinases, percent activity relative to control (Table XV), ZAP-70", "format": "biochemical", "settings": "@ 10 μM"}, "PI3 kinase": {"test_system": "PI3 kinase", "test": "Isolated kinases, percent activity relative to control (Table XV), PI3 kinase", "format": "biochemical", "settings": "@ 10 μM"}}, "data": [{"compound": "CN1CCN(CCOc2ccc(-c3ccc(CC(=O)NCc4cccc(F)c4)nc3)c(F)c2)CC1", "values": [{"measurement": "potency against isolated Src compared with KX2-391", "setting": "Src", "value": "a little more potent against isolated Src"}, {"measurement": "IC50", "setting": "Src", "value": 5000, "unit": "nM"}, {"measurement": "GI50", "setting": "[1]; read-out: GI50, c-Src/NIH-3T3", "value": 13, "unit": "nM"}, {"measurement": "GI50", "setting": "[2]", "value": 794, "unit": "nM"}]}, {"compound": "COc1cc2c(Nc3c(Cl)ccc4c3OCO4)ncnc2cc1OCCCN1CCCCC1", "values": [{"measurement": "inhibition of isolated Abl", "setting": "Abl", "value": "strong inhibition"}, {"measurement": "percent activity of isolated kinase relative to control, Ab1(h)", "setting": "Abl; @ 10 μM", "value": 1, "unit": "%"}, {"measurement": "percent activity of isolated kinase relative to control, EGFR(h)", "setting": "EGFRTK; @ 10 μM", "value": 3, "unit": "%"}, {"measurement": "inhibition of isolated EGFRTK", "setting": "EGFRTK; listed as AZ28", "value": "potent EGFR tyrosine kinase inhibitor"}, {"measurement": "inhibition of isolated EGFRTK", "setting": "EGFRTK; listed as AstraZeneca ATP competitive inhibitor", "value": "strong inhibition"}, {"measurement": "inhibition of isolated Fyn", "setting": "Fyn", "value": "strong inhibition"}, {"measurement": "percent activity of isolated kinase relative to control, Fyn(h)", "setting": "Fyn; @ 10 μM", "value": 2, "unit": "%"}, {"measurement": "inhibition of isolated Lck", "setting": "Lck", "value": "strong inhibition"}, {"measurement": "percent activity of isolated kinase relative to control, Lck(h)", "setting": "Lck; @ 10 μM", "value": 1, "unit": "%"}, {"measurement": "inhibition of isolated Lyn", "setting": "Lyn", "value": "strong inhibition"}, {"measurement": "percent activity of isolated kinase relative to control, Lyn(h)", "setting": "Lyn; @ 10 μM", "value": 0, "unit": "%"}, {"measurement": "inhibition of isolated Yes", "setting": "Yes", "value": "strong inhibition"}, {"measurement": "percent activity of isolated kinase relative to control, Yes(h)", "setting": "Yes; @ 10 μM", "value": 1, "unit": "%"}, {"measurement": "inhibition of isolated PDGF receptor tyrosine kinase", "setting": "[3]", "value": "not a potent inhibitor"}, {"measurement": "percent activity of isolated kinase relative to control, PDGFRβ(h)", "setting": "[3]; @ 10 μM", "value": 98, "unit": "%"}, {"measurement": "inhibition of isolated FAK", "setting": "FAK", "value": "not a potent FAK inhibitor"}, {"measurement": "times less potent against isolated FAK than against isolated Src", "setting": "FAK", "value": "≥ 100", "unit": "×"}, {"measurement": "IC50", "setting": "FAK; read-out: IC50, isolated FAK, titration data", "value": "> 500", "unit": "nM"}, {"measurement": "IC50", "setting": "Src", "value": 8, "unit": "nM"}, {"measurement": "times less potent against cell growth than against isolated Src", "setting": "[1]", "value": "10-100 ×"}, {"measurement": "Src-Y416 autophosphorylation", "setting": "Src-Y416", "value": "expected dose response"}, {"measurement": "phosphorylation of FAK Tyr 925", "setting": "FAK Tyr 925", "value": "inhibited Src trans-phosphorylation"}, {"measurement": "phosphorylation of Shc Y239/240", "setting": "Shc Y239/240", "value": "inhibited Src trans-phosphorylation"}, {"measurement": "phosphorylation of Paxillin Y-31", "setting": "Paxillin Y-31", "value": "inhibited Src trans-phosphorylation"}, {"measurement": "induction of apoptosis (Caspase-3 cleavage)", "setting": "Caspase-3", "value": "not effective in inducing apoptosis"}, {"measurement": "total phosphotyrosine levels", "setting": "total phosphotyrosine", "value": "reduction in the total phosphotyrosine levels"}, {"measurement": "PDGF receptor autophosphorylation", "setting": "[4]", "value": "dose response reduction in PDGF receptor autophosphorylation"}, {"measurement": "FAK autophosphorylation (Y397)", "setting": "FAK Y397", "value": "some inhibition of FAK autophosphorylation"}, {"measurement": "EGFR tyrosine kinase autophosphorylation", "setting": "EGFR tyrosine kinase", "value": "potently inhibits EGFR tyrosine kinase autophosphorylation"}, {"measurement": "average dB threshold shifts, treated ears versus control", "setting": "Chinchillas", "value": "lower"}, {"measurement": "formation of osteoclasts (staining)", "setting": "[5]", "value": "inhibited the formation of osteoclasts"}, {"measurement": "number of TRAP-positive osteoclasts (formation)", "setting": "[5]", "value": "reduced the number of TRAP-positive osteoclasts"}, {"measurement": "number of TRAP-positive osteoclasts (survival)", "setting": "osteoclasts", "value": "reduced the number of TRAP-positive osteoclasts"}, {"measurement": "survival of osteoclasts (staining)", "setting": "osteoclasts", "value": "inhibited the survival of osteoclasts"}, {"measurement": "number of TRAP-positive osteoclasts on the bone slices (TRAP stain)", "setting": "[6]", "value": "reduced the number of TRAP-positive osteoclasts on the bone slices"}, {"measurement": "number of osteoclasts on the bone slices", "setting": "[6]", "value": "reduced the number of osteoclasts on the bone slices"}, {"measurement": "number of resorption pits on the bone slices", "setting": "[6]", "value": "reduced the number of resorption pits on the bone slices"}, {"measurement": "number of resorption pits on the bone slices (Toluidine Blue)", "setting": "[6]", "value": "reduced the number of resorption pits on the bone slices"}, {"measurement": "percent activity of isolated kinase relative to control, FGFR2(h)", "setting": "FGFR2(h)", "value": 94, "unit": "%"}, {"measurement": "percent activity of isolated kinase relative to control, IGF-1R(h)", "setting": "IGF-1R(h)", "value": 110, "unit": "%"}, {"measurement": "percent activity of isolated kinase relative to control, IR(h)", "setting": "IR(h)", "value": 125, "unit": "%"}, {"measurement": "percent activity of isolated kinase relative to control, MAPK2(h)", "setting": "MAPK2(h)", "value": 105, "unit": "%"}, {"measurement": "percent activity of isolated kinase relative to control, PKCα(h)", "setting": "PKCα(h)", "value": 111, "unit": "%"}, {"measurement": "percent activity of isolated kinase relative to control, Pyk2(h)", "setting": "Pyk2(h)", "value": 43, "unit": "%"}, {"measurement": "percent activity of isolated kinase relative to control, ZAP-70(h)", "setting": "ZAP-70(h)", "value": 97, "unit": "%"}, {"measurement": "percent activity of isolated kinase relative to control, PI3 kinase", "setting": "PI3 kinase", "value": 99, "unit": "%"}]}]}
